{"sequences": {"note": "The chains behind the UniProt entries cited, without tags or fusion partners. Where a name states a change or a piece, a line headed by the entry shows the natural chain unless it says otherwise. Residues count along the entry.", "UniProt P35563, 24-483": "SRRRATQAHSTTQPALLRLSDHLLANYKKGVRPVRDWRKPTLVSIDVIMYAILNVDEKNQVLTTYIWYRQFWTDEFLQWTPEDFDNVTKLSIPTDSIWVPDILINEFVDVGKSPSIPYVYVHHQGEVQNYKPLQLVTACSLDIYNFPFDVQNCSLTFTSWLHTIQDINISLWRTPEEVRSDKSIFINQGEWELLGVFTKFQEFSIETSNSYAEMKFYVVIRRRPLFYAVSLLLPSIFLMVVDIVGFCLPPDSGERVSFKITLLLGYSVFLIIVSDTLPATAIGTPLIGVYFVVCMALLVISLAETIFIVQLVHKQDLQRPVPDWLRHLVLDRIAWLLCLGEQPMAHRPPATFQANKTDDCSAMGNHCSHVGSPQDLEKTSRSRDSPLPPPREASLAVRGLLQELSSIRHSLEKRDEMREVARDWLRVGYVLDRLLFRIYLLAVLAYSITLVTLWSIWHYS", "UniProt Q62758": "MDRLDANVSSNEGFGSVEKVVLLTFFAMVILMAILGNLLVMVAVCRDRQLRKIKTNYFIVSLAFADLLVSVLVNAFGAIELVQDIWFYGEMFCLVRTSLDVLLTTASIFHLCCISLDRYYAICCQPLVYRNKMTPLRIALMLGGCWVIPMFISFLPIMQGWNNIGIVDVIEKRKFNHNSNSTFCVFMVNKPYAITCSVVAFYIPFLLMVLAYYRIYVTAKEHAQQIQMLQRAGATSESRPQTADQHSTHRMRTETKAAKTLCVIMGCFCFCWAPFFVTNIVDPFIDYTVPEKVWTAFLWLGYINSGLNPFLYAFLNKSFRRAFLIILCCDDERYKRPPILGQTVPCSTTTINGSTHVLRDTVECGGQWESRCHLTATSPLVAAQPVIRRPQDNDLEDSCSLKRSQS"}, "source": "patent US5300512A", "about": "“Benzimidazole compounds” (G. D. Searle & Co., priority 1992, dated 1994)", "key": {"5-HT3 receptor": {"target": "T1, 5-HT3 receptor (Rattus norvegicus, UniProt P35563)", "T1 construct": "Brain cortices were obtained from male rats and a membrane fraction prepared by standard techniques; from tissue; host or cells: rat brain cortex, membrane fraction", "test": "[3H]-GR65630 radioligand binding to 5-HT3 receptor, rat brain cortex membranes", "conditions": "[3H]-GR65630 bound (0.2 nM)", "experimental": "(§1) 5-HT4 agonist activity was determined in the in vitro rat tunica muscularis mucosae (TMM) assay. (Baxter et al., Naunyn Schmied Arch. Pharmacol, 1991, 343, 439). The 5-HT4 agonist or antagonist and/or 5-HT3 antagonist activity of the compounds of the invention can be determined by these assays described herein, without undue experimentation.\nGR65630 binds to the 5-HT3 receptor. Brain cortices were obtained from male rats and a membrane fraction prepared by standard techniques. 0.04 mg of membrane prep was incubated with 0.2 nM […] for 60 minutes at 22° C. […] Membranes were filtered and washed 3 times and the filters were counted to determine [3H]-GR65630 specifically bound. (Kilpatrick G. J., Jones B. J. and Tyers M. B. Identification and distribution of 5-HT3 receptors in rat brain using radioligand binding. Nature, 330: 746-748, 1987)."}, "5-HT4 receptor": {"target": "T2, 5-HT4 receptor (Rattus norvegicus, UniProt Q62758)", "T2 construct": "The inner tunica muscularis mucosa was mounted under 0.2-0.3 g of tension in a tissue bath; from tissue; host or cells: rat intrathoracic esophagus, tunica muscularis mucosae", "test": "In vitro functional assay for serotonin 5-HT4 agonism: rat TMM (relaxation of carbachol-contracted tunica muscularis mucosae)", "format": "biochemical", "experimental": "as §1\nAgonist activity was determined utilizing relaxation of carbachol-contracted rat tunica muscularis mucosae. One 2 cm segment of intrathoracic esophagus proximal to the diaphragm was removed from male rats, weighing approximately 300 gm, and the outer muscle layers removed. The inner tunica muscularis mucosa was mounted under 0.2-0.3 g of tension in a tissue bath containing oxygenated Tyrode's solution at 37° C. […] Following a 30 min equilibrium period, tissues were isometrically contracted with carbachol (3 μM) to obtain a tonic contraction. A stable plateau was obtained within 20 min when test compound was added cumulatively to relax the muscle strip. EC50 values were obtained for each agonist in tissues from 5 rats."}}}
{"compound": "NCCc1c[nH]c2ccc(O)cc12", "note": "[Example 5-HT, 5-hydroxytryptamine]", "values": [{"measurement": "Hill Coefficient", "setting": "5-HT3 receptor", "value": 1.0}, {"measurement": "EC50", "setting": "5-HT4 receptor", "value": 9, "unit": "nM"}]}
